FGF22 binding – binders of recombinant human FGF22 by thermal shift; Q9HCT0; SYPRO orange fluorescence; percent of sucrose octasulfate shift, DMSO zero; activity (Tm shift, normalised), % at 9.99 µM; actives 1.5% (n = 340,000); AID 651658;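 active means mean Tm shift, scaled 0 neutral to 100 positive control, at about 1.3% or above, every replicate too, limit read from the data; inconclusive means no clear call, values can overlap the other calls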
UUG fidelity – modulators of start codon recognition fidelity in yeast; activity score, % at 18.7 µM; actives 0.13% (n = 350,000); S. cerevisiae UUG-firefly luciferase reporter, luminescence/redox ratio;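 active = replicate mean at a twofold rise or more, about +100% in these data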;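 note: firefly luciferase made from a UUG start codon reports start codon fidelity; reporter light over untreated wells divided by growth signal over untreated wells; some hits fall short of that in this replicate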
PglD DTNB – inhibitors of Campylobacter jejuni PglD acetyltransferase | purified PglD enzyme, DTNB colorimetric CoA detection | inhibition, % at 12.5 µM | actives 0.098% (n = 360,000) | AID 602405; in the data active means inhibition above about 16%, passing the limit was not always enough; inconclusive means no clear call, values can overlap the other calls
PDI inh – inhibitors of human protein disulfide isomerase | PDI insulin aggregation turbidity, A650, 90 min | inhibition, % at 10 µM | actives 0.052% (n = 350,000) | AID 588391;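 active means mean inhibition across replicates of 30% or more, whatever share of single replicates reach that level; inconclusive means mean inhibition below 30% while every single replicate reaches 30%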
ERp5 inh – inhibitors of human ERp5 | inhibition, % at 9.99 µM | actives 0.05% (n = 350,000) | ERp5 insulin aggregation, absorbance 650 nm, 90 min | AID 651711;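 active means mean replicate inhibition above about 25%, with every replicate also reaching it, limit read from the data, passing the limit was not always enough; inconclusive means only one of those two criteria met; inactive means neither criterion met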
ARNT-TACC3 inh – ARNT/TACC3 interaction disruption | Q9Y6A5 | AlphaScreen His-ARNT PAS-B/GST-TACC3 binding, luminescence; TACC3 fragment carries E629A point mutation | inhibition, % at 9.99 µM | actives 0.66% (n = 390,000) | AID 623870;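 active means mean inhibition of replicates at least 50% and at least half of replicates each reaching 50%; inconclusive means half or more replicates reach 50% but mean below 50%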
Large screens that a line does not name were inactive. Rows were chosen to be rich in hits. Some 1.9% of all compounds tested hit in one or more screens of this group.

COc1ccc(NC(=O)C2CC(=O)N=C(N)S2)cc1 (stereo not given)	FGF22 binding 43.1
CCc1ccc(NC(=O)C2CC(=O)N=C(N)S2)cc1 (stereo not given)	none (no result: FGF22 binding, ERp5 inh)
CC(C)NC(=O)N(C)C[C@H]1Oc2ccc(N(C)C)cc2C(=O)N([C@H](C)CO)C[C@@H]1C	none (no result: PDI inh)
N#C[C@@H]1[C@@H](c2ccc(C#CC3(O)CCCC3)cc2)[C@@H](CO)N1C(=O)C1CC1	none (no result: UUG fidelity, PDI inh)
CCC(=O)Nc1cc(-c2cc3ccccc3oc2=O)ccc1OC	FGF22 binding 42.9 (no result: UUG fidelity, PglD DTNB)
Cc1cc(C(=O)N/N=C/c2cc(Cl)cc([N+](=O)[O-])c2O)c2ccccc2n1	ARNT-TACC3 inh 75.8
O=C(N/N=C/c1cc(Cl)cc([N+](=O)[O-])c1O)c1cccc(S(=O)(=O)N2CCOCC2)c1	ARNT-TACC3 inh 70.6
CC(C)c1ccc(/C=N/NC(=O)c2cccc(S(=O)(=O)N3CCOCC3)c2)cc1	FGF22 binding 44.3
CCCN(C)C[C@H]1OCCCC[C@H](C)Oc2ccc(NC(=O)Cc3ccccc3)cc2C(=O)N([C@H](C)CO)C[C@H]1C	none (no result: PDI inh)
CC(=O)N1[C@@H]2c3cccc(=O)n3C[C@@H]2[C@@H](CO)[C@@H]1C(=O)NCc1ccccc1F	none (no result: UUG fidelity, PDI inh)
Cc1nccc(-c2cccc(NC(=O)Nc3ccc(Cl)cc3)c2)n1	FGF22 binding 1.8 (no result: UUG fidelity, PglD DTNB)
C[C@H]1CN([C@@H](C)CO)C(=O)c2c(c3ccccc3n2C)-c2ccccc2CO[C@H]1CN(C)Cc1cccc2c1OCCCO2	none (no result: UUG fidelity, PglD DTNB, PDI inh, ARNT-TACC3 inh)
Cc1ncccc1C(=O)N1CCCC(C(=O)c2ccc3c4c(cccc24)CC3)C1 (stereo not given)	FGF22 binding 43.2 (no result: UUG fidelity, PglD DTNB, ARNT-TACC3 inh)
CCc1nc(CN2CCCC(C(=O)c3ccc4c5c(cccc35)CC4)C2)c(C)[nH]1 (stereo not given)	FGF22 binding 43.5 (no result: UUG fidelity, PglD DTNB)
O=C(c1ccc2c3c(cccc13)CC2)C1CCCN(C(=O)c2ccc(=O)[nH]c2)C1 (stereo not given)	none (no result: UUG fidelity, PglD DTNB)
CCS(=O)(=O)NCC[C@H]1CC[C@H](NC(=O)Cc2ccccn2)[C@H](CO)O1	none (no result: PDI inh)
C[C@H]1CN([C@@H](C)CO)C(=O)c2cc(NS(=O)(=O)c3ccccc3)ccc2O[C@@H]1CN(C)Cc1ccncc1	none (no result: PDI inh)
O=C(C[C@@H]1C=C[C@H](NS(=O)(=O)c2ccc(F)cc2)[C@H](CO)O1)NCc1ccc(Cl)c(Cl)c1	none (no result: PDI inh, ARNT-TACC3 inh)
COc1ccc(N=N/C(=C\O)C(=O)c2ccco2)cc1	FGF22 binding 43.3 (no result: UUG fidelity, PglD DTNB)
C[C@@H]1CCCCO[C@H](CN(C)Cc2ccc(C(=O)O)cc2)[C@@H](C)CN([C@H](C)CO)C(=O)c2cc(NS(=O)(=O)c3cccs3)ccc2O1	none (no result: PDI inh)
CCC(C)Nc1nc(-c2cccc(OC)c2O)nc2ccccc12 (stereo not given)	none (no result: FGF22 binding, ERp5 inh)
c1ccc(CNc2nc(-c3ccccc3)nc3ccccc23)cc1	none
CCC(C)Nc1nc(-c2ccccn2)nc2ccccc12 (stereo not given)	ARNT-TACC3 inh 62.2
c1ccc(CNc2nc(-c3cccs3)nc3ccccc23)cc1	FGF22 binding 43.4 (no result: UUG fidelity, PglD DTNB)
c1ccc(CNc2nc(-c3ccccn3)nc3ccccc23)cc1	ARNT-TACC3 inh 70.2
COc1ccc(NC2CC(=O)N(c3cc([N+](=O)[O-])ccc3C)C2=O)cc1 (stereo not given)	FGF22 binding 43.2 (no result: UUG fidelity, PglD DTNB)
COc1cc(CNc2nnnn2C)ccc1OCc1ccc(F)cc1Cl	none
CCn1nnnc1NCc1ccc(OCc2ccc(F)cc2Cl)c(OC)c1	FGF22 binding 43.4
O=C(NCc1ccc(Cl)cc1)C(=O)Nc1nccs1	none (no result: UUG fidelity, PglD DTNB)
CC(C)c1ccc(CNC(=O)C(=O)Nc2nccs2)cc1	FGF22 binding 43.5 (no result: UUG fidelity, PglD DTNB, ARNT-TACC3 inh)
C[C@@H]1CN([C@@H](C)CO)C(=O)c2cccc(NC(=O)C3CCOCC3)c2O[C@H]1CN(C)CC1CCCCC1	none (no result: PDI inh)
Cc1ccc(CSc2nc3ccccc3c(=O)[nH]2)cc1	none
O=c1[nH]c(SCc2ccccc2)nc2c1sc1ccccc12	FGF22 binding 43.9 (no result: UUG fidelity, PglD DTNB)
COc1ccc(C(=O)O)cc1S(N)(=O)=O	none
CNS(=O)(=O)c1cc(C(=O)O)ccc1OC	FGF22 binding 43.0 (no result: UUG fidelity, PglD DTNB)
CCNc1nc(C(=O)O)nc(N2CCOCC2)n1	FGF22 binding 43.1, ARNT-TACC3 inh 79.3 (no result: UUG fidelity, PglD DTNB)
CC(C)CNc1ncnc2[nH]ncc12	FGF22 binding 43.6 (no result: UUG fidelity, PglD DTNB)
Clc1ccc(CNc2ncnc3[nH]ncc23)cc1Cl	none (no result: UUG fidelity, PglD DTNB)
Clc1ccc(CNc2ncnc3[nH]ncc23)c(Cl)c1	FGF22 binding 43.2 (no result: UUG fidelity, PglD DTNB)
C[C@H](CO)N1C[C@H](C)[C@H](CN(C)Cc2ccccc2C(F)(F)F)OCc2cn(nn2)CCCC1=O	none (no result: PDI inh)
Cc1ccc(NC(=S)N(Cc2ccc(Br)cc2)Cc2ccc(C(=O)O)cc2)cc1C	FGF22 binding 43.0 (no result: UUG fidelity, PglD DTNB)
Cc1cc(C)cc(NC(=S)N(Cc2ccc(Br)cc2)Cc2ccc(C(=O)O)cc2)c1	none
Cc1cc(NC(=S)N(Cc2ccc(Cl)cc2)Cc2ccc(C(=O)O)cc2)ccc1Cl	FGF22 binding 43.7
O=C(CCC(=O)NNC(=O)COc1ccc(Br)cc1Br)NCc1ccccc1	none (no result: UUG fidelity, PglD DTNB, ARNT-TACC3 inh)
Cc1cc(Br)cc(Br)c1OCC(=O)NNC(=O)CCC(=O)NCc1ccccc1	ERp5 inh 27.3
O=C(Nc1ccccc1F)N[C@H]1CC[C@H](CC(=O)N2CCCCC2)O[C@H]1CO	none (no result: PDI inh)
CCOC(=O)C(C)Sc1nc2c(c(-c3cccs3)c1C#N)CCC2 (stereo not given)	none (no result: UUG fidelity, PglD DTNB)
CC(C)OC(=O)CC(=O)CSc1nc2c(c(-c3cccs3)c1C#N)CCC2	FGF22 binding 43.9 (no result: UUG fidelity, PglD DTNB)
O=C(O)c1cc(O)c2c(c1)[C@H]([C@H]1c3cc(C(=O)O)cc(O)c3C(=O)c3c(O[C@@H]4O[C@H](CO)[C@@H](O)[C@H](O)[C@H]4O)cccc31)c1cccc(OC3O[C@H](CO)[C@@H](O)[C@H](O)[C@H]3O)c1C2=O (stereo not given in full)	PDI inh 46.6
O=C(O)c1cc(O)c2c(c1)[C@@H]([C@H]1c3cc(C(=O)O)cc(O)c3C(=O)c3c(O[C@@H]4O[C@H](CO)[C@@H](O)[C@H](O)[C@H]4O)cccc31)c1cccc(OC3O[C@H](CO)[C@@H](O)[C@H](O)[C@H]3O)c1C2=O (stereo not given in full)	PDI inh inconclusive
Cc1cc(C)nc(-n2ncc3c2CCCC3=O)n1	FGF22 binding 43.0 (no result: UUG fidelity, PglD DTNB)
Cc1cc(C)nc(-n2ncc(C#N)c2N)n1	none (no result: UUG fidelity, PglD DTNB)
COc1ccc(S(=O)(=O)N(C)C[C@@H]2OCCCC[C@H](C)Oc3ccc(NC(=O)C4CCCCC4)cc3C(=O)N([C@@H](C)CO)C[C@@H]2C)cc1	none (no result: PDI inh)
Cc1ccc(N=C2c3ccccc3C(=O)C2[N+](=O)[O-])cc1C (stereo not given)	FGF22 binding 43.3 (no result: UUG fidelity, PglD DTNB, ARNT-TACC3 inh)
Cc1ccc(N=C2C(=O)Nc3ccccc32)cc1C	none
CN1CCN(C(=O)/C(=C\c2cccnc2)NC(=O)c2cccc(Br)c2)CC1	FGF22 binding 1.4
COc1ccc(/C=C(\NC(=O)c2ccc([N+](=O)[O-])cc2)C(=O)N2CCOCC2)cc1	FGF22 binding 43.3 (no result: UUG fidelity, PglD DTNB)
